Here are results for one molecule from ChEMBL document CHEMBL1128959, “Quinoline-substituted dihydroindoles as cysLT1 (LTD4 receptor) antagonists” (Bioorg Med Chem Lett, 1996).

The target in assay [1] is T1, Cysteinyl leukotriene receptor 1 (Cavia porcellus) (UniProt Q2NNR5).
T1 sequence (whole entry): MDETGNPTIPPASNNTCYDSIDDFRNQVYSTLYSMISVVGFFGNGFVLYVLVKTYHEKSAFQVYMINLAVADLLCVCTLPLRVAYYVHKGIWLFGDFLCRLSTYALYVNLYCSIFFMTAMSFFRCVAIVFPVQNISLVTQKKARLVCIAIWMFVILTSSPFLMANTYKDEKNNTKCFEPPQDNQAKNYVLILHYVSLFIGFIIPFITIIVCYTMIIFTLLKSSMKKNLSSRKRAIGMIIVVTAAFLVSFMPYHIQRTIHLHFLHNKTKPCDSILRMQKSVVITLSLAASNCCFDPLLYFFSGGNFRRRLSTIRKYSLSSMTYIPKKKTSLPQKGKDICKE
Nature of the assay: Compound was tested for its inhibitory activity against specific binding of [3H]LTD4 to guinea pig ileum. Format: tissue-based.

Assay [2] deals with T1, Cysteinyl leukotriene receptor 1 (Cavia porcellus). The assay can be described thus: Compound was tested for its inhibitory activity against specific binding of [3H]LTD4 to guinea pig trachea. The format is tissue-based.

Turning to `c1cc(CN2CCc3cccc(CCc4nnn[nH]4)c32)cc(OCc2ccc3ccccc3n2)c1`, the figures for the pKB in assay [1] and in assay [2] were 8 and 7.8, respectively.

In general, pKB refers to the negative decadic logarithm of the KB, by convention in mol/L. A lower pKB goes with a large KB.
